# Measured affinities in a library of Ab-91 heavy chain variants

All variants were tested on one target, the spike HR2 peptide PDVDLGDISGINAS (SARS-CoV-2).

Ab-91 is the parent antibody, in scFv form: VL, then a 15-residue (Gly4Ser)3 linker, then VH. The light chain is unchanged in all variants.
VL: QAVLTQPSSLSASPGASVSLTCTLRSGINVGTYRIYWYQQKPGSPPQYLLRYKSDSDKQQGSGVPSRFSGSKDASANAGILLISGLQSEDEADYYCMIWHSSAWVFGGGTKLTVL
VH: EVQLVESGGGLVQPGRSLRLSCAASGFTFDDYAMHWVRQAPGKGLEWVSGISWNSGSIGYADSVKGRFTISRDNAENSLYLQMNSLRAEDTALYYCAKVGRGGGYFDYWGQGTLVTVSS

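Phage display of a naive human antibody library on the peptide gave the parent. In library AAYL51, one, two or three CDR residues were substituted; doubles and triples were drawn at random. AlphaSeq pools MATa yeast showing the antibodies with MATalpha yeast showing the peptide. Mating (16 h, 30 °C) was followed by selection of diploids and sequencing of their barcodes. A regression on co-assayed BCL2-family reference pairs converts the normalised counts of each replicate to an apparent Kd. Mating was done three times.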

Substitutions are numbered in sequence along the VH above, starting at 1 (not Kabat).
All variants listed here change D62 of the VH, counted from its first residue.
The read-out is the apparent dissociation constant on a log10 scale (nM): the lower, the stronger.
Averages over replicates are reported, and they cover detected replicates only.
"nd" means that the variant was in the library but no mating with the target was seen in that replicate; the authors take this as a sign of poor binding, and no number exists.
Empty control strains, which show no peptide, gave a signal in 21% of pairings with library AAYL51; the median was 4.54 and 95% of these signals were weaker than 3.26. No background was subtracted. For each scFv, signals with the empty controls are counted beside the result.

For A33Q+G50I+D62Y, the assay gave nd, nd, nd (controls 0 of 9).
For D62R+G102C+Y108L, the assay gave 4.48, 5.33, nd (mean 4.91; controls 0 of 9).
For I51K+D62A+S63V, the assay gave 4.05, 4.02, nd (mean 4.03; controls 1 of 9).
For T28S+Y60Q+D62N, the assay gave 5.07, 4.06, 3.79 (mean 4.31; controls 0 of 9).
For W53G+D62N+K65L, the assay gave 2.49, 2.25, 2.18 (mean 2.31; controls 1 of 9).
For I58R+Y60N+D62W, the assay gave nd, nd, nd (controls 1 of 9).
For D62F+V64Y+F106S, the assay gave nd, 4.46, nd (controls 2 of 9).
For G26H+D62C+G102W, the assay gave nd, nd, nd (controls 0 of 9).
For I58K+D62Q+F106G, the assay gave nd, nd, nd (controls 1 of 9).
For N54P+Y60V+D62S, the assay gave 4.07, nd, 3.74 (mean 3.90; controls 3 of 9).
For D31Y+A61I+D62A, the assay gave 2.64, 2.44, 2.43 (mean 2.50; controls 3 of 9).
For G50C+N54S+D62H, the assay gave nd, nd, nd (controls 3 of 9).
For D62L+K65Q+G102A, the assay gave 2.29, 2.26, 2.15 (mean 2.23; controls 4 of 9).
For G59H+D62V+G102C, the assay gave nd, nd, nd (controls 2 of 9).
For F27G+D62N+G103T, the assay gave nd, nd, nd (controls 1 of 9).
For G59T+D62T, the assay gave nd, 5.44, nd (controls 1 of 9).
For A61E+D62E+V99M, the assay gave 4.31, 6.07, 5.32 (mean 5.23; controls 6 of 9).
For Y32S+I58Y+D62C, the assay gave 3.11, nd, 3.04 (mean 3.07; controls 1 of 9).
For G50A+Y60R+D62N, the assay gave nd, nd, 4.35 (controls 5 of 9).
For F29G+A33Y+D62K, the assay gave 3.98, nd, nd (controls 3 of 9).
For D62N+S63Q+Y105R, the assay gave 6.00, nd, nd (controls 3 of 9).
For D31L+W53R+D62F, the assay gave 3.91, 6.10, 4.91 (mean 4.97; controls 7 of 9).
For F29H+S52V+D62R, the assay gave nd, nd, nd (controls 2 of 9).
For T28H+G56R+D62I, the assay gave nd, nd, nd (controls 0 of 9).
For D62M+V64R+G103C, the assay gave 4.47, 4.71, nd (mean 4.59; controls 2 of 9).
For D30H+S57F+D62F, the assay gave 4.24, 3.90, 4.07 (mean 4.07; controls 2 of 9).
For H35A+D62H+Y108H, the assay gave nd, nd, nd (controls 2 of 9).
For G59Y+D62M, the assay gave nd, nd, nd (controls 2 of 9).
For D62F+V64I, the assay gave 3.43, 2.70, 3.74 (mean 3.29; controls 4 of 9).
For I58Q+Y60L+D62K, the assay gave 4.91, nd, 4.61 (mean 4.76; controls 3 of 9).
For D62K+K65A+F106K, the assay gave 3.99, nd, 4.78 (mean 4.38; controls 1 of 9).
For F29V+A61E+D62P, the assay gave nd, nd, nd (controls 1 of 9).
For G50C+D62F+V64W, the assay gave 4.51, 5.15, nd (mean 4.83; controls 5 of 9).
For D30P+A33Q+D62Q, the assay gave 5.44, 4.33, 6.31 (mean 5.36; controls 6 of 9).
For S52Y+A61E+D62A, the assay gave nd, nd, nd (controls 0 of 9).
For D62V+K65A, the assay gave 2.31, 2.51, 2.74 (mean 2.52; controls 0 of 9).
For F27W+D62N+Y108L, the assay gave 1.62, 1.65, 1.18 (mean 1.48; controls 2 of 9).
For D30E+H35D+D62P, the assay gave nd, nd, 3.65 (controls 2 of 9).
For D30C+G59E+D62T, the assay gave 2.62, 2.23, 2.43 (mean 2.43; controls 2 of 9).

Again, the first 4 entries without any signal:

changes	log10 Kd (nM) by replicate	mean, log10 nM	signal with controls
A33Q+G50I+D62Y	nd, nd, nd	nd	0/9
I58R+Y60N+D62W	nd, nd, nd	nd	1/9
G26H+D62C+G102W	nd, nd, nd	nd	0/9
I58K+D62Q+F106G	nd, nd, nd	nd	1/9

From the AlphaSeq antibody data of Engelhart et al. 2022 (doi:10.1038/s41597-022-01779-4), copy in the FLAb collection.